Reported logP (octanol/water) values for industrial, environmental and drug-like chemicals

logP is the log10 of the octanol-water partition coefficient; higher is more lipophilic.
The databases behind each value are named after "via".

structure (SMILES),logP,via
FC(Cl)(Cl)C(F)(Cl)Cl,2.985,"OCHEM, eChemPortal"
CNCCCCc1cccnc1,0.91,OCHEM
CN1CCCC[C@H]1c1cccnc1,0.96,OCHEM
Cl.Cl.NNCc1ccccc1,0.46,eChemPortal
O=S(=O)(NS(=O)(=O)C(F)(F)F)C(F)(F)F,-0.771,eChemPortal
CCC(C)OC(=O)OOC(=O)OC(C)CC (stereo not given),3.6,eChemPortal
C[N+](C)(C)Cc1ccco1.[I-],-2.4,OCHEM
Oc1cc(Cl)cc(Cl)c1O,2.32,OCHEM
CN(N=O)C(C)(C)C,0.81,OCHEM
Cl.ClCCN1CCCC1,0.736,eChemPortal
O=[N+]([O-])C(Br)(CO)CO,0.21,"OCHEM, PubChem, eChemPortal"
Clc1ccc2c(c1)Oc1cc(Cl)c(Cl)c(Cl)c1O2,6.9,OCHEM
C[N+]1(C)C2CCC1CC(OC(=O)C(CO)c1ccccc1)C2.O=[N+]([O-])[O-] (stereo not given),-2.22,OCHEM
C[N+](C)(C)Cc1ccc(CCl)o1.[I-],-2,OCHEM
NC(=O)[O-].[NH4+],-0.47,eChemPortal
COC1=C[C@]23CCCN2CCc2cc4c(cc2[C@@H]3C1=O)OCO4,0.84,OCHEM
CNCC(C)c1ccccc1 (stereo not given),2.28,OCHEM
COc1ccc(CCN2CCC(Nc3nc4ccccc4n3Cc3ccc(F)cc3)CC2)cc1,5.8,PubChem
COC1CC(OC2CCC3(CO)C4CCC5(C)C6(C=CC(=O)OC6)CCC5(O)C4CCC3(O)C2)OC(C)C1O (stereo not given),0.56,OCHEM
COc1cccc(C[N+](C)(C)C)c1.[Br-],-1.9,OCHEM
CCC(C)(C)OOC1(OOC(C)(C)CC)CCCCC1,6.85,eChemPortal
C[C@]12C[C@H]3O[C@H]3CC1CCC1C2CC[C@]2(C)C(=O)[C@@H](N3CCCC3)CC12 (some centres undefined),3.2,eChemPortal
CCOP(=S)(OCC)Oc1ccc(F)nc1,3.51,OCHEM
CC(C)CC(N(C)C)C1(c2ccc(Cl)cc2)CCC1 (stereo not given),5.2,PubChem
C=CCC1(CC(C)C)C(=O)NC(=O)NC1=O,1.7,PubChem
CC(=O)C=C(C)C,1.7,PubChem
CN(C)N,-0.4,"OCHEM, eChemPortal"
C#CC1(OC(N)=O)CCCCC1,1.2,PubChem
COCCOCCO,-0.7,"PubChem, eChemPortal"
Brc1c(Br)c(Br)c(Oc2c(Br)c(Br)c(Br)c(Br)c2Br)c(Br)c1Br,6.27,"OCHEM, PubChem, eChemPortal"
Clc1ccc(-c2cc(Cl)c(Cl)c(Cl)c2)cc1Cl,6.89,OCHEM
Clc1cc(Cl)c2c(c1)Oc1cc(Cl)c(Cl)cc1O2,7.1,OCHEM
CCOP(=O)(OCC)SCS(=O)C(C)(C)C (stereo not given),2.66,OCHEM
[C-]#[O+],0.83,PubChem
CC(=O)Cl,-0.47,PubChem
Oc1c(Cl)c(Cl)c(O)c(Cl)c1Cl,3.61,OCHEM
CCCC(C)(COC(N)=O)COC(=O)NC(C)C (stereo not given),2.1,PubChem
NCCOP(=O)(O)OCC(O)CO.O,-3.25,eChemPortal
BrCC(Br)C1CCC(Br)C(Br)C1 (stereo not given),5.24,PubChem
O=C(Cl)C(Cl)(Cl)Cl,0.88,eChemPortal
O=CC=O,-1,eChemPortal
c1cncc(CC2CCCCN2)c1 (stereo not given),1.49,OCHEM
CC(Cl)(Cl)[N+](=O)[O-],1.56,PubChem
Cc1cc(Cl)ccc1N,2.4,OCHEM
C1CCC(NC2CCCCC2)CC1,3.5,PubChem
Nc1ccc([N+](=O)[O-])cc1[N+](=O)[O-],1.89,"OCHEM, eChemPortal"
CCCCC(CC)COC(=O)CCCCC(=O)OCC(CC)CCCC (stereo not given),8.94,eChemPortal
CN(C)C(=O)Oc1ccc[n+](C)c1,1.554,PubChem
O=C1NC(=O)C(=c2[nH]c(=C3C(=O)NC(=O)NC3=O)c3ccccc23)C(=O)N1,0.31,eChemPortal
CC(N)C(O)c1ccc(O)c(O)c1 (stereo not given),-1.43,OCHEM

3 of these entries, quoted again:

{"smiles": "CCOP(=S)(OCC)Oc1ccc(F)nc1", "logP": "3.51", "via": "OCHEM"}
{"smiles": "CCC(C)(C)OOC1(OOC(C)(C)CC)CCCCC1", "logP": "6.85", "via": "eChemPortal"}
{"smiles": "NCCOP(=O)(O)OCC(O)CO.O", "logP": "-3.25", "via": "eChemPortal"}

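The numbers are reported measurements, compiled and curated for the OPERA QSAR suite. The files give a single number for a compound and property, which may rest on several reports. Method and conditions are not stated for these values. The measured form (salt, isomer or mixture) is not always the one drawn. Unmarked limits or estimates from the upstream databases cannot be ruled out.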

From the experimental data distributed with OPERA 2.9.